Drawing on PubChem BioAssay AID1654 (Sanford-Burnham Center for Chemical Genomics, 2009), this text covers inhibition for 23 molecules.

The chains behind the UniProt entries cited, without tags or fusion partners.
UniProt P51452, whole entry: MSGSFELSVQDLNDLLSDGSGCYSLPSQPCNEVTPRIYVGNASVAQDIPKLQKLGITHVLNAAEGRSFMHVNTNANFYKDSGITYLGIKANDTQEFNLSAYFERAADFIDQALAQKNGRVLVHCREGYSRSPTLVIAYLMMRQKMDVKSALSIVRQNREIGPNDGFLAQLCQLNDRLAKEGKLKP

The entries are a selection whose mix differs from that of the whole data set. Some results for these compounds are left out of this collection, so the calls shown say nothing about other tests. The source made the active and inactive calls. Cut-off read from the data, not from the text of the source: active = inhibition above about 50%; inactive = the rest.

In the assay the target is Dual specificity protein phosphatase 3 (Homo sapiens) (UniProt P51452). In words: VHR1 phosphatase inhibitors, primary screen, biochemical, absorbance, uHTS (AID 1654). The following applies: recombinant VHR phosphatase, pNPP absorbance; at 13.3 µM; hits give high values.
With `O=C(OC1CN2CCC1CC2)C(CO)(c1ccccc1)c1ccccc1` (stereo not drawn), the inhibition (as a rule, the change of the read-out against control, counted positive when it falls) was inactive: 2.4%.
Take `COc1ccc(Br)c(C(=O)NCC2(N3CCCCC3)CCCCC2)c1`: the inhibition is inactive: 3.5%.
`CN(C)c1cccc(C(=O)NCC2(N(C)C)CCCCC2)c1`: the inhibition is inactive: 13.6%.
For `CC(C)Oc1ccc(C(=O)NCC2(N(C)C)CCCCC2)cc1`, the inhibition is inactive: -1.2%.
In the case of `CN(C)C1(CNC(=O)c2ccc(Br)cc2)CCCCC1`, the inhibition is inactive: -37.7%.
Take `COc1cc(C(=O)NCC2(N(C)C)CCCCC2)c([N+](=O)[O-])cc1OC`: the inhibition is inactive: -2%.
In the case of `COc1ccc(Cl)cc1C(=O)NCC1(N(C)C)CCCCC1` it was inactive: 5.3%; in that of `COc1cccc(C(=O)NCC2(N3CCCCC3)CCCCC2)c1`, inactive: 5.3%.
With `O=C(NCC1(N2CCCCC2)CCCCC1)c1cccc(Cl)c1` the figure was inactive: 29.7%; with `CN(C)C1CCCC1OC(=O)C(O)(c1ccccc1)c1ccccc1` (stereo not drawn), inactive: 3.4%.
As for `CN(C)c1ccc(C(=O)NCC2(N(C)C)CCCCC2)cc1`, the inhibition was inactive: 41.1%.
For the molecule `Cc1ccccc1C(=O)NCC1(N2CCCCC2)CCCCC1`, the inhibition is inactive: 32.4%.
With `O=C(NCC1(N2CCCCC2)CCCCC1)c1cc(F)c(F)cc1Cl` the figure was inactive: 29.3%; with `C=CCN1CCN(CCOC(=O)C(O)(c2ccccc2)c2ccccc2)CC1`, inactive: 40.7%.
With `O=C(NCC1(N2CCCCC2)CCCCC1)c1cccc(Br)c1`, the inhibition was inactive: 14.1%.
As for `Cc1cc(C(=O)NCC2(N3CCCCC3)CCCCC2)ccc1[N+](=O)[O-]`, the inhibition was inactive: 26.3%.
Consider `CCN1CCCC(OC(=O)C2(O)c3ccccc3C=Cc3ccccc32)C1` (stereo not drawn), for which the inhibition was inactive: -8%.
Turning to `COc1ccc(C(=O)NCC2(N(C)C)CCCCC2)cc1`, the inhibition is inactive: -27.7%.
With `O=C(NCC1(N2CCCCC2)CCCCC1)c1cc([N+](=O)[O-])ccc1Cl` the figure was inactive: -0.5%.
`CN1[C@@H]2CC[C@H]1CC(OC(=O)C(O)(c1ccccc1)c1ccccc1)C2` (stereo partly drawn): the inhibition is inactive: 16.5%.
With `CC(C)N1C(=O)CC2(CCN(CCOC(=O)C(O)(c3ccccc3)c3ccccc3)CC2)C1=O` the figure was inactive: 0.8%.
With `CCN(CC)CC(C)C(C)OC(=O)C(O)(c1ccccc1)c1ccccc1` (stereo not drawn) the figure was inactive: 0.9%; with `Cc1ccc(C(=O)NCC2(N3CCCCC3)CCCCC2)cc1`, inactive: -2.9%.
